This assay relates to Thymidylate synthase (Bos taurus). Kind of assay: Tested against thymidylate synthase (TS) in calf thymus at 59 uM.

The text below walks through data of ChEMBL document CHEMBL1126757, “Benzoquinazoline inhibitors of thymidylate synthase: enzyme inhibitory activity and cytotoxicity of some 3-amino- and 3-methylbenzo[f]quinazolin-1(2H)-ones” (J Med Chem, 1993).

Turning to `Nc1nc(O)c2c(n1)CCc1c-2ccc2ccccc12`, the inhibition – broadly, the percentage by which the read-out fell short of the control – stood at 19%.
